Patent publication US20130089912A1, “METHODS AND COMPOSITIONS FOR THE STABILIZATION OF BIOLOGIC MATERIAL” (priority 2011, published 2013)

Settings: choline salt of the named anion

| Substance | Log Pow |
| --- | --- |
| choline formate | −1.53 |
| choline tartarate | 03.04 |
